Measurements published in patent US7309713B2, “Use of the non-opiate analgesic drug flupirtine for the treatment of overactive bladder and associated diseases including urge incontinence, urinary flow problems as a result of prostate hyperplasia and irritable bowel syndrome” (priority 2005, dated 2007).

Key:
[1] = tested on: mean arterial blood pressure; test: mean arterial blood pressure recorded in the urethane anaesthetised rats of the bladder model; settings: for mean BP, change in percent from base value (Δ %): group mean; for mean arterial blood pressure decreased by: decrease
[2] = tested on: volume-induced rhythmic urinary bladder contractions; test: volume-induced rhythmic urinary bladder contractions in urethane anaesthetised rats (rat model of overactive bladder); assay type: in vivo, Sprague Dawley rat; settings: for presence/absence of bladder contractions (block grade), individual animal: 55 min period, Table 4; for mean voiding frequency decreased by: decrease; for mean pressure peaks of the amplitude diminished/reduced by: reduction
Excerpt: In the search for new drugs compounds are of interest which affect the central nervous system circuits involved in micturation as well as the peripheral nerves resulting in a decrease in the frequency of the voiding reflex without any effect on bladder contractility. […] The method utilises spontaneous, volume-induced contractions of the urinary bladder in anaesthetised rats and was developed and first described by Dray (J. Pharmacol. Meth. 13:157-165, 1985) to assess the central activity of substances with opioid properties on bladder function. As this model clearly mimics the interplay between smooth muscle function and neuronal control thereof, this model can be also used to predict drug effects in a different disease, i.e. irritable bowl syndrome (IBS).
Aim of the study: To characterise the effects of the analgesic flupirtine maleate on the bladder function we used the model volume-induced contractions of urinary bladder in urethane anaesthetised rats. […] The compounds at the dose range 0.1-10 mg/kg were intraduodenally administered to anaesthetised rats. The intraduodenal route was chosen to mimic the oral route and to avoid the use of solvents necessary for intravenous administration.
• Species: Sprague Dawley rat • Sex: Female • Body weight: 200-270 g • Breeder: Charles River, Sulzfeld • Food/Tap water: pellets, ssniff M/R15, ad libitum, Spezialdiäten GmbH, Soest/Wesffalen, FRG • Conditions in animal housing: Rats were kept conventionally in groups of 6 in macrolon cages No. 4. • Room temperature: 20-24° C. • Relative humidity: 40-70%, deviations from the maximum range caused during cleaning procedure are possible • Light/Dark rhythm: 12/12 h light/dark cycle, light on at 6:00 a.m.
The food was withdrawn 16 hours before intraduodenal drug administration. Tap water was available ad libitum.
Flupirtine maleate or oxybutynin hydrochloride were suspended in hydroxyethylcellulose (0.5%) in demineralised water. The substances were ground in a mortar with pistil. The suspensions were placed on a magnetic stirrer before and during dosing procedures. The substances were freshly prepared in the morning and applied intraduodenally in a volume of 0.4 ml/100 g body weight. Control rats received hydroxyethylcellulose (0.5%) i.d.
The filling material, consisting of small globules, was ground in a mortar with pistil. Thereafter the grounded material was suspended in hydroxyethylcellulose (0.5%) in demineralised water. The suspensions were placed on a magnetic stirrer before and during dosing procedures for 10 minutes. The suspensions were freshly prepared in the morning and applied intraduodenally in a volume of 0.4 ml/100 g body weight to rats. Control rats received the same amount of hydroxyethylcellulose (0.5%) i.d.
The continuous registration lasted 1 hr. […] The frequency was evaluated for 10 min before (baseline) and within the observation period in intervals of 10 minutes starting 5, 20, 35 and 50 min after drug administration. For intraduodenal dosing, drugs were administered via a duodenal polyethylene tube to animals in aqueous suspension of 0.5% hydroxyethylcellulose.

[3] = 0.1 mg/kg i.d. single dose, group mean
[4] = 0.1 mg/kg i.d., individual animals, hydrochloride
[5] = 1.0 mg/kg i.d. single dose, group mean
[6] = 1.0 mg/kg i.d., individual animals, hydrochloride
[7] = 3.0 mg/kg i.d. single dose, group mean
[8] = 3.0 mg/kg i.d., individual animals
[9] = 3.0 mg/kg i.d., individual animals, hydrochloride
[10] = 10 mg/kg i.d. single dose, group mean
[11] = 10 mg/kg i.d., individual animals
[12] = 10 mg/kg i.d., individual animals, hydrochloride

CNCC[C@H](Oc1cccc2ccccc12)c1cccs1.Cl [duloxetine hydrochloride, (+)-(S)-N-Methyl-N-[3-(naphthalen-1-yloxy)-3-(2-thienyl)propyl]amine hydrochloride]
mean BP, change in percent from base value (Δ %) ([1]; 0.1 mg/kg i.d. single dose): −15% | mean arterial blood pressure decreased by ([1]; 0.1 mg/kg i.d.): 15% | mean BP, change in percent from base value (Δ %) ([1]; 1.0 mg/kg i.d. single dose): −1.8% | mean arterial blood pressure decreased by ([1]; 1 mg/kg i.d.): 1.8% | mean BP, change in percent from base value (Δ %) ([1]; 3.0 mg/kg i.d. single dose): −11% | decrease in mean blood pressure, individual animal ([1]; 3.0 mg/kg i.d., animal 221): mean blood pressure by 13% | mean arterial blood pressure decreased by ([1]; 3 mg/kg i.d.): 11% | mean BP, change in percent from base value (Δ %) ([1]; 10 mg/kg i.d. single dose): +21% | mean arterial blood pressure increased by ([1]; 10 mg/kg i.d., increase): 21% | fall of mean blood pressure to ([1]; 10 mg/kg i.d., one rat (animal 208)): 0 mm Hg | death of the animal ([1]; 10 mg/kg i.d., one rat (animal 208), 60th min): exitus | block X/n (animals with blockade of bladder contraction) ([2]; 0.1 mg/kg i.d. single dose): 3/3 | amplitude, change in percent from base value (Δ %) [2, 3]: +1.7% | frequency Post (20-60 min), mean [2, 3]: 5.7-6.0 n/10 min | frequency, change in percent from base value (Δ %) [2, 3]: −47% | block, blockade duration (group, min-max) ([2]; 0.1 mg/kg i.d. single dose, hydrochloride): 2.5 to 5 min | block, blockade duration (group, min-max) ([2]; 0.1 mg/kg i.d. single dose, listed as Duloxetine hydrochloride, hydrochloride): 2 to 5 min | presence/absence of bladder contractions (block grade), individual animal ([2]; 0.1 mg/kg i.d.): (+) (+ or (+) = contractions abolished during 5-10 min time period) | mean pressure peaks of the amplitude increased by ([2]; 0.1 mg/kg i.d., increase): 1.7% | decrease in frequency, individual animal [2, 4]: in frequency by 43%; also recorded: by 50%, onset of repetitive bursts; also recorded: mean frequency by 39% | duration of block, individual animal [2, 4]: ≤ 5 min and ≤ 3 min and max. 2.5 min, initial short block and (2 min), afterwards decrease in | number of episodes of block per animal [2, 4]: 2 and 4 and 3 | number of episodes of block per animal ([2]; 0.1 mg/kg i.d., individual animals, listed as Duloxetine hydrochloride, hydrochloride): 2-4 | mean voiding frequency decreased by ([2]; 0.1 mg/kg i.d., text, listed as Duloxetine hydrochloride, hydrochloride): 47% | mean voiding frequency decreased by ([2]; 0.1 mg/kg i.d., text, listed as duloxetine, hydrochloride): about 47% | block X/n (animals with blockade of bladder contraction) ([2]; 1.0 mg/kg i.d. single dose): 3/3 | block, blockade duration (group, min-max) ([2]; 1.0 mg/kg i.d. single dose): 2.5 to 10 min | amplitude, change in percent from base value (Δ %) [2, 5]: −5.4% | frequency, change in percent from base value (Δ %) [2, 5]: −60% | presence/absence of bladder contractions (block grade), individual animal ([2]; 1.0 mg/kg i.d.): (+) (+ or (+) = contractions abolished during 5-10 min time period) | mean voiding frequency decreased by ([2]; 1 mg/kg i.d.): 60% | decrease in the height of the amplitude, individual animal ([2]; 1.0 mg/kg i.d., individual animals): remained unchanged | decrease in frequency, individual animal [2, 6]: 70% and frequency by 55%, occurrence and mean frequency by 50% and mean frequency by 70%, | duration of block, individual animal [2, 6]: 2.5 min and ≤ 10 min and 2 min and ≤ 7 min, marked decrease in | number of episodes of block per animal [2, 6]: 1-6 and 3 and 5-6 | mean pressure peaks of the amplitude diminished/reduced by ([2]; 1 mg/kg i.d.): 5.4% | animals with sporadic increase in the frequency of the voiding ([2]; 3.0 mg/kg i.d.): 2/3 | block X/n (animals with blockade of bladder contraction) ([2]; 3.0 mg/kg i.d. single dose): 3/3 | block, blockade duration (group, min-max) ([2]; 3.0 mg/kg i.d. single dose): 5 to 28 min | amplitude, change in percent from base value (Δ %) [2, 7]: −14% | frequency Post (20-60 min), mean [2, 7]: 9.0-9.5 n/10 min | frequency, change in percent from base value (Δ %) [2, 7]: +2.8% | presence/absence of bladder contractions (block grade), individual animal ([2]; 3.0 mg/kg i.d., hydrochloride): (+) (+ or (+) = contractions abolished during 5-10 min time period); also recorded: ++ (++ = contractions abolished during 10-30 min time period) | mean frequency averaged over all animals increased by ([2]; 3 mg/kg i.d., increase): 2.8% | decrease in frequency, individual animal [2, 8]: mean frequency decreased by 15% | increase in frequency, individual animal [2, 8]: mean frequency by 40%, slight | decrease in the height of the amplitude, individual animal [2, 9]: remained unchanged; also recorded: amplitude by 24%, decrease in; also recorded: of the amplitude unchanged | duration of block, individual animal [2, 9]: 5 min and ≤ 28 min and 7 to 8 min | number of episodes of block per animal [2, 9]: 1-2 and 2 | mean pressure peaks of the amplitude diminished/reduced by ([2]; 3 mg/kg i.d.): 14% | animals with sporadic increase in the frequency of the voiding ([2]; 10 mg/kg i.d.): 4/5 | block X/n (animals with blockade of bladder contraction) ([2]; 10 mg/kg i.d. single dose): 4/5 | block, blockade duration (group, min-max) ([2]; 10 mg/kg i.d. single dose): 2 to 10 min | amplitude Post (30-60 min), mean [2, 10]: 20.4-26.0 mm Hg | amplitude, change in percent from base value (Δ %) [2, 10]: −3.4% | frequency, change in percent from base value (Δ %) [2, 10]: −4.8% | presence/absence of bladder contractions (block grade), individual animal ([2]; 10 mg/kg i.d., hydrochloride): (+) (+ or (+) = contractions abolished during 5-10 min time period); also recorded: + (+ or (+) = contractions abolished during 5-10 min time period) | mean voiding frequency decreased by ([2]; 10 mg/kg i.d.): 4.8% | decrease in frequency, individual animal [2, 11]: frequency by 11%, thereafter | reduction in the amplitude, individual animal [2, 11]: in the amplitude by 5% | duration of block, individual animal [2, 12]: 8 min and max. 2 min, during first 30 min and 7 min (2×) and ≤ 10 min and min, after initial block (6 min) | increase in frequency, individual animal [2, 12]: 110%, after 35th min reduction and maximum by −50%, irregular and by 33% during 20-30th min | number of episodes of block per animal [2, 12]: 3 (2×) and 2 | increase in frequency, individual animal ([2]; 10 mg/kg i.d., individual animals, listed as duloxetine, hydrochloride): 110% | mean pressure peaks of the amplitude diminished/reduced by ([2]; 10 mg/kg i.d.): 3.4%

Values joined by “and” are separate entries in the source; they are usually repeats but may differ in a detail not shown here. Equal values may be shown once. “Also recorded” adds a separate entry of the source.
